Biological target: human μOR (hμOR) (Homo sapiens, UniProt P35372)
Experiment: Pink Flamindo cAMP assay, reversal of DAMGO-induced cAMP inhibition
Assay type: cell-based
Details: read-out: IC50 in reversing the inhibition of cAMP by DAMGO; coapplied with DAMGO 250 nM, hμOR-HEK293 cells, AUC analysis, n = 3

Chains of the proteins cited; added tags and fusions are not shown.
UniProt P35372, whole entry: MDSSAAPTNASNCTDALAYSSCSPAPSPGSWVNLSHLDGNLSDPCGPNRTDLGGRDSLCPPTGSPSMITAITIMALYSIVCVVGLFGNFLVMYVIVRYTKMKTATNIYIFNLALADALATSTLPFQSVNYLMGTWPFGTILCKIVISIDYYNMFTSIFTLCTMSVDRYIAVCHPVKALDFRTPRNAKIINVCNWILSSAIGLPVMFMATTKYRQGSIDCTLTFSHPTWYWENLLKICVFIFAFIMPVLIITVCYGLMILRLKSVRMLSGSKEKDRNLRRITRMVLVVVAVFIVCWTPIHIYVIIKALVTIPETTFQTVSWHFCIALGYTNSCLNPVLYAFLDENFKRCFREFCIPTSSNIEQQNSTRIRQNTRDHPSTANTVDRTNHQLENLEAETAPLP

With `C=C(C)[C@@H]1CCC(C)=C[C@H]1c1c(O)cc(CCCCC)cc1O` [JGC1, (1′R,2′R)-5′-Methyl-4-pentyl-2′-(prop-1-en-2-yl)-1′,2′,3′,4′-tetrahydro-[1,1′-biphenyl]-2,6-diol] as the molecule, how does the IC50 read?
Its IC50 is 311 nM.
